Assay results taken from patent US9744189B1, “Compositions of lithium salts and methods of use” (University of South Florida, priority 2013, dated 2017).

Settings: rats, acute oral administration

O=C([O-])c1ccccc1O.[Li+] [Lithium Salicylate, lithium salicylate]
blood/plasma distribution versus brain distribution: essentially the same as the brain distribution
